Assay results: paper PMC12350680

By UniProt entry, the sequences of proteins in these tests, tags left out. Where a name states a change or a piece, a line headed by the entry shows the natural chain unless it says otherwise.
UniProt P02550: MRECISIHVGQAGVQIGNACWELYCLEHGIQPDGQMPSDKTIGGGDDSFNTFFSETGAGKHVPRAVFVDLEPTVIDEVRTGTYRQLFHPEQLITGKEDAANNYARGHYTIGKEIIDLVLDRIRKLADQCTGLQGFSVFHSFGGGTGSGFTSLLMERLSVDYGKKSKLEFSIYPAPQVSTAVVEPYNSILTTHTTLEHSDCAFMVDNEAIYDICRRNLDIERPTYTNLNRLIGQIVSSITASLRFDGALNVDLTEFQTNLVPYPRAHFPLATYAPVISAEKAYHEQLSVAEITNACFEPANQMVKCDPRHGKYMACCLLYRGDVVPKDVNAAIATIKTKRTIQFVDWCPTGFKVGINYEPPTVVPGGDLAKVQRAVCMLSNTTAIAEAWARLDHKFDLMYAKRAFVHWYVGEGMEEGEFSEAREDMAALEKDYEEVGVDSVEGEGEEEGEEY

Target: microtubules pre-polymerized from porcine brain tubulin (porcine) (UniProt P02550)
Test: co-sedimentation; SSNA-1 with GMPCPP microtubules pre-polymerized from porcine brain tubulin, 20 µM each (1:1), BRB10, 4 min at room temperature, sedimented at 9777g and 25 °C; SDS-PAGE band intensities

Row | Substance | concentration of SSNA-1 co-sedimented with microtubules (of 20 µM) [µM] | percent of SSNA-1 co-sedimented with microtubules [%]
1 | SSNA-1(Y97E) (natural protein) | 9.5 | 48
2 | SSNA-1(R18E/Y97E) (natural protein) | 2.4 | 12
3 | SSNA-1(18-105) (domain or fragment) |  | 30
4 | SSNA-1(1-97) (domain or fragment) | 9.3 | 46
5 | SSNA-1(Y15E/Y97E) (natural protein) |  | 25
6 | SSNA-1(1-96) (domain or fragment) | 8.2 | 41
7 | SSNA-1(1-100) (domain or fragment) | 9.9 | 50
8 | SSNA-1(19-105) (domain or fragment) | 2.6 | 13
